{"source": "paper PMC7156492", "key": {"[1]": {"molecular_target": "26S proteasome (1 RP and 1 CP) (bovine (endogenous in heart tissue))", "assay": "mass photometry; purified bovine proteasomes, 50 nM, 25 mM BisTris, 50 mM KCl, 5 mM MgCl2, 20% glycerol, 4 mM ATP, 1 mM DTT, 4 °C; also with 50-500 mM NaCl for 2 h on ice"}, "[2]": {"molecular_target": "30S proteasome (2 RP, 1 CP) (bovine (endogenous in heart tissue))", "assay": "mass photometry; purified bovine proteasomes, 50 nM, 25 mM BisTris, 50 mM KCl, 5 mM MgCl2, 20% glycerol, 4 mM ATP, 1 mM DTT, 4 °C; also with 50-500 mM NaCl for 2 h on ice"}}}
{"substance": "adapter protein Ecm29 (natural protein)", "values": [{"measurement": "stoichiometry N", "setting": "[1]", "result": 1}, {"measurement": "stoichiometry N", "setting": "[2]", "result": 1}]}
